Reference: US9981059B2, “Sugar chain-polypeptide complex” (Glytech, Inc., priority 2013, dated 2018)
“Also recorded” adds a separate entry of the source.

How the values were obtained:
Type in all cases: physicochemical
[1] = Steel ball loading test of hydrogel property; set-up: key to position of the steel ball / hydrogel state: The state of the steel ball staying near the hydrogel surface was set as ◯; sinking after loading and staying internally was set as Δ; sinking to the bottom of the Durham's tube was set as X; * was added to those where the hydrogel was not uniform and clouding or insoluble matter (precipitate) was observed
Description: Ten mg of the sugar chain-polypeptide complex or 10 mg of the control polypeptide were dissolved in 500 μL of ultrapure water to prepare 2 wt. % polypeptide solutions. […] In doing so, citrate-phosphate buffer (pH 2.0 and 3.5), phosphate buffer (pH 7.4), and phosphate-sodium hydroxide buffer (pH 11.5) were employed as the buffer. The surface of the hydrogel inside the Durham's tube was horizontally placed, left still for 20 minutes under room temperature conditions, and a steel ball (diameter 1.56 mm, weight 16 mg, FUNABE SEIKO Co., Ltd.) was loaded on the hydrogel. After 10 minutes, the position of the steel ball was observed by visual confirmation.
The position of the steel ball inside the Durham's tube was evaluated in 3 grades. The state of the steel ball staying near the hydrogel surface was set as ◯, sinking after loading and staying internally was set as Δ, and sinking to the bottom of the Durham's tube was set as X. In addition, * was added to those where the hydrogel was not uniform and clouding or insoluble matter (precipitate) was observed. A hydrogel where the steel ball stays around the surface (◯) and no clouding or insoluble matter is seen (no *) was thought to be a gel that is transparent and uniform.

[2] = Kinetic viscosity measurement with rheometer; settings: 0.5 wt. % hydrogel, pH 7, 25 degrees
Description: A rheometer (MCR302, Anton Paar GmbH) equipped with a stainless steel parallel plate having a diameter of 25 mm with 0.3 mm gap height was employed for kinetic viscosity measurement. C(DiGlcNAc)-(RADA)4 which is one embodiment of the present invention or (RADA)4 as the control were dissolved in ultrapure water. Five millimolars of aqueous sodium hydroxide solution was added to these aqueous polypeptide solutions in order to adjust the pH to prepare 0.5 wt. % hydrogels at pH 7. Subsequently, these hydrogels were quickly transferred to a rheometer set at 25 degrees, and phase angle (tan δ) was monitored over a time course. (frequency=1 Hz, distortion=10%)

[3] = Circular dichroism (CD) measurement of β sheet structure
Description: In general, the characteristics of the wavelengths observed when a substance has a β sheet structure are a positive absorption at around 197 nm and a negative absorption at around 216 nm. For this reason, focus was placed on the size of these wavelengths in the present invention, and the influence of pH on the β sheet structure was investigated.
C(DiGlcNAc)-(RADA)4 which is one embodiment of the present invention or (RADA)4 as the control were dissolved in ultrapure water. One to ten millimolars of aqueous sodium hydroxide solutions were added to each of these aqueous polypeptide solutions to adjust the pH, and 100 mM aqueous polypeptide solutions at having pH 2 or pH 7 were created. These aqueous solutions were transferred to quartz cells having an optical path length of 0.1 cm. The CD spectrum was then measured with a spectrum polarimeter (J-805, Jasco) at wavelengths of 185-260 nm for ellipticity (millidegree). The mean residue ellipticity θ was calculated with the following formula: [θ]=(θobs/10·l·c)/r
wherein θobs represents the ellipticity measured in millidegree, l represents the cell length (cm), c represents the concentration (M), and r represents the number of amino acid residues.

[4] = Steel ball loading test of hydrogels comprising rat blood plasma (utility as hemostatic matrix); set-up: key to position of the steel ball / hydrogel state: The state of the steel ball staying near the hydrogel surface was set as ◯; sinking after loading and staying internally was set as Δ; sinking to the bottom of the Durham's tube was set as X; * was added to those where the hydrogel was not uniform and clouding or insoluble matter (precipitate) was observed; settings: polypeptide 0.5 wt. %
Description: Aqueous polypeptide solutions were prepared with a method similar to Example 1. Blood was collected from 7 weeks-old Crlj:WI rats with heparin sodium injection (Ajinomoto), and blood plasma was obtained from the supernatant after centrifugation treatment. The aqueous polypeptide solution, blood plasma, and PBS were added to a Durham's tube, and hydrogels was prepared so that the plasma concentration was 5-50% and the polypeptide concentration was 0.5 wt. %. Subsequently, these were left for 20 minutes at room temperature condition, and then steel ball loading tests were carried out with a method similar to Example 1.

[5] = peptide concentration 1 wt. %, pH 3.5
[6] = peptide concentration 1 wt. %, pH 7.4
[7] = hydrogel concentration 0.5 wt. %, pH 3.5
[8] = hydrogel concentration 0.5 wt. %, pH 7.4

Substance | position of the steel ball / hydrogel state [1, 5] | position of the steel ball / hydrogel state [1, 6] | hydrogel formed (in words) ([1]; 0.5 wt. %, pH 3.5 and pH 7.4) | position of the steel ball / hydrogel state [1, 7] | position of the steel ball / hydrogel state [1, 8] | also measured
C(DiGlcNAc)-(RADA)5 [Compound 7] | ◯ | ◯ | – | – | – | –
(RADA)4-C(DiGlcNAc) [Compound 13] | – | – | transparent and uniform hydrogels | ◯ | ◯ | –
C(Asialo)-(RADA)4 [Compound 4] | ◯ | ◯ | – | – | – | –
C(PEG2000)-(RADA)5 [Compound 15, reference compound] | – | – | uniform hydrogels were not formed | X | X | –
C(DiGlcNAc)-(RATARAEA)2 [Compound 17] | – | – | transparent and uniform hydrogels; also recorded: transparent and uniform gel | ◯ | ◯ | –
C(DiGlcNAc)-(RADA)4 [Compound 2] | ◯ | ◯ | transparent and uniform hydrogels | ◯ | ◯ | hydrogel formed (in words) ([1]; 1 wt. %, all pH ranges (pH 2.0-pH 11.5)): transparent and uniform hydrogels; hydrogel formed (in words) ([1]; 1 wt. %, pH 3.5 and pH 7.4): transparent and uniform hydrogels; position of the steel ball / hydrogel state ([1]; hydrogel concentration 0.25 wt. %, pH 3.5): X; position of the steel ball / hydrogel state ([1]; hydrogel concentration 0.25 wt. %, pH 7.4): ◯; hydrogel formed (in words) ([1]; hydrogel concentration lowered to 0.25 wt. %): formed a uniform hydrogel only at pH 7.4; position of the steel ball / hydrogel state ([1]; peptide concentration 1 wt. %, pH 2.0): ◯; position of the steel ball / hydrogel state ([1]; peptide concentration 1 wt. %, pH 11.5): ◯; rigidity of hydrogel formed [2]: rigid hydrogel; phase angle (tan δ) over a time course ([2]; frequency 1 Hz, distortion 10%): decreased rapidly; β sheet structure formation ([3]; neutral pH): forms a β sheet structure; molar ellipticity (CD) ([3]; pH 2, 100 mM aqueous polypeptide solution): high molar ellipticity; molar ellipticity (CD) ([3]; pH 7, 100 mM aqueous polypeptide solution): high molar ellipticity; position of the steel ball / hydrogel state ([4]; plasma concentration 5%): ◯; hydrogel formed in presence of blood plasma (in words) ([4]; plasma concentration 5-50%): formed uniform hydrogels regardless of the plasma concentration; position of the steel ball / hydrogel state ([4]; plasma concentration 10%): ◯; position of the steel ball / hydrogel state ([4]; plasma concentration 25%): ◯; position of the steel ball / hydrogel state ([4]; plasma concentration 50%): ◯
N(DiGlcNAc)-(RADA)4 [Compound 19] | ◯ | ◯ | – | – | – | hydrogel formed (in words) ([1]; 1 wt. %, pH 3.5 and pH 7.4): transparent and uniform hydrogels
C(Asialo)-(RADA)5 [Compound 6] | ◯ | ◯ | – | – | – | –
C(Disialo)-(RADA)4 [Compound 3] | ◯ | ◯ | – | – | – | –
N(Asialo)-(RADA)4 [Compound 18] | ◯ | ◯ | – | – | – | hydrogel formed (in words) ([1]; 1 wt. %, pH 3.5 and pH 7.4): transparent and uniform hydrogels
C(Asialo)-(RATARAEA)2 | – | – | – | – | – | hydrogel formed (in words) ([1]; Example 4, 0.5 wt. %, pH 7.4): transparent and uniform hydrogel
C(Disialo)-(RADA)5 [Compound 5] | ◯ | ◯ | – | – | – | –
